Results published in ChEMBL document CHEMBL4425088, “PDEStrIAn: A Phosphodiesterase Structure and Ligand Interaction Annotated Database As a Tool for Structure-Based Drug Design” (J Med Chem, 2016).

Chains of the proteins cited; added tags and fusions are not shown. Lines headed by an entry give the natural chain unless they say otherwise; changes in a name come on top.
UniProt Q08499: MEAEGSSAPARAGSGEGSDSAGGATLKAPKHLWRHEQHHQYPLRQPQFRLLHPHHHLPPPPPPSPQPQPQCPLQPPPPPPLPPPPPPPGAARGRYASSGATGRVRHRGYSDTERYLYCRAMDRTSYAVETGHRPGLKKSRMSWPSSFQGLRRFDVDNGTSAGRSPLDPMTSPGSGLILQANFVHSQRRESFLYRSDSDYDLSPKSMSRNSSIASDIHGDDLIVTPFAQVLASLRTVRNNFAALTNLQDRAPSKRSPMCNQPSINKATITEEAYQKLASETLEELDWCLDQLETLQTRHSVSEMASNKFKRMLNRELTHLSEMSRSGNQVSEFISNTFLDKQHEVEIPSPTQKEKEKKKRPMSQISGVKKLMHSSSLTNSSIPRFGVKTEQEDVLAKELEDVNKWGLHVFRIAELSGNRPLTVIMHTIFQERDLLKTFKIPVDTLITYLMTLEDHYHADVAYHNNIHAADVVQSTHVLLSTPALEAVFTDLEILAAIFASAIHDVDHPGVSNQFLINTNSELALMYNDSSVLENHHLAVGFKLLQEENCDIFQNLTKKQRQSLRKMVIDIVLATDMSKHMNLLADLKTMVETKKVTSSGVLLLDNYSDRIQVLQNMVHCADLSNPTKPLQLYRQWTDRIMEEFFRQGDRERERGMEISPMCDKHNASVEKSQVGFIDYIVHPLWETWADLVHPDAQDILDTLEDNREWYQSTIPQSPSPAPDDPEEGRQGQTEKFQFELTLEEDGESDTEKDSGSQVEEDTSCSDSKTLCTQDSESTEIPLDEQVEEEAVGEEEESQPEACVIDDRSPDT

Target: 3',5'-cyclic-AMP phosphodiesterase 4D (Homo sapiens, UniProt Q08499)
Assay: Inhibition of human His-tagged PDE4D catalytic domain expressed in Escherichia coli BL21-CodonPlus(DE3) cells using [3H]cAMP or [3H]cGMP as substrate incubated for 30 mins by scintillation counting method

IC50: 270 nM
Structure (SMILES): CCOC(=O)c1c(C)nn(-c2ccccc2)c1C
